B1: Vacuolar protein sorting-associated protein 75 (Saccharomyces cerevisiae), P53853 (parent)
chain: MMSDQENENEHAKAFLGLAKCEEEVDAIEREVELYRLNKMKPVYEKRDAYIDEIAEFWKIVLSQHVSFANYIRASDFKYIDTIDKIKVEWLALESEMYDTRDFSITFHFHGIEGDFKEQQVTKVFQIKKGKDDQEDGILTSEPVPIEWPQSYDSINPDLIKDKRSPEGKKKYRQGMKTIFGWFRWTGLKPGKEFPHGDSLASLFSEEIYPFCVKYYAEAQRDLEDEEGESGLSADGDSEDDDGSLGEVDLPLSDEEPSSKKRKV

Variants of: B1
Settings: with rt109_yeast RTT109, Q07794

Row | Variant | effect of a mutation on the interaction
1 | MMSDQENENEHAKAFLGLAKCEEEVDAIEREVELYRLNKMKPVYEKRDAYIDEIAEFWKIVLSQHVSFANYIRASDFKYIDTIDKIKVEWLALESEMYDTRDFSITFHFHGIEGDFKEQQVTKVFQIKKGKDDQEDGILTSEPVPIEWPQSYDSINPDLIKDKRSPEGKKKYRQGMKTIFGWFRWTGLKPGKEFPHGDSLASLFSEEIYPFCVKYYAKAQRKLEDEEGESGLSADGDSEDDDGSLGEVDLPLSDEEPSSKKRKV [E218K;D222K] | disrupting interaction
2 | MMSDQENENEHAKAFLGLAKCEEEVDAIEREVELYRLNKMKPVYEKRDAYIDEIAEFWKIVLSQHVSFANYIRASDFKYIDTIDKIKVEWLALESEMYDTRDFSITFHFHGIEGDFKEQQVTKVFQIKKGKDDQEDGILTSEPVPIEWPQSYDSINPDLIKDKRSPEGKKKYEQGMETIFGWFRWTGLKPGKEFPHGDSLASLFSEEIYPFCVKYYAEAQRDLEDEEGESGLSADGDSEDDDGSLGEVDLPLSDEEPSSKKRKV [R173E;K177E] | decreasing interaction
